Measurements published in patent publication EP0854927B1.

Target: G-actin (UniProt P68135)
Assay: actin binding ELISA: G-actin captured on GC globulin-coated wells, bound DNase I detected with anti-human DNase I polyclonal antibody-HRP

| EC50 [nM] | Substance |
| --- | --- |
| 0.067 | Pulmozyme® human DNase I (Genentech, Inc.) (enzyme) |
| 0.087 | native human DNase I (enzyme) |
